# Apparent affinities of Ab-91 variants for a coronavirus HR2 peptide

The target is the same throughout: PDVDLGDISGINAS, from the HR2 region of SARS-CoV-2 spike.

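The parent was found by panning a naive human phage display library on the peptide. The library (AAYL51) carries one to three amino acid substitutions per variant, with no insertions or deletions. AlphaSeq pools MATa yeast showing the antibodies with MATalpha yeast showing the peptide. Mating (16 h, 30 °C) was followed by selection of diploids and sequencing of their barcodes. Each replicate has its own calibration line, from reference interactions of the BCL2 family. Each pool was mated in three replicate cultures.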

Parent: Ab-91, a human scFv built as VL, the linker GGGGSGGGGSGGGGS, VH. Only the CDRs of the heavy chain vary.
VL: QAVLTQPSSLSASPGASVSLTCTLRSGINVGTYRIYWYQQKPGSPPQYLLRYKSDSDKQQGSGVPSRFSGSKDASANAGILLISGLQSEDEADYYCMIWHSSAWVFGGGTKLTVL
VH: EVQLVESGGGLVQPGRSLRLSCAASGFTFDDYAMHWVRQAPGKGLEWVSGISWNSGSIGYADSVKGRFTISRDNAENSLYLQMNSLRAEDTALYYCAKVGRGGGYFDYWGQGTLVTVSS

Substitutions are numbered in sequence along the VH above, starting at 1 (not Kabat). All variants listed here change I58 of the VH, counted from its first residue. The read-out is the apparent dissociation constant on a log10 scale (nM): the lower, the stronger. Replicates are averaged; those with no signal do not enter the mean. An entry "nd" has no value in the source: the pair was not observed among the diploids in any replicate. This suggests poor binding but is not conclusive. Nonspecific signal, from three strains lacking the peptide, appeared in 21% of pairings of library AAYL51, centred on 4.54 (5% of these signals below 3.26); values are not corrected for it. For reference, the parent read 1.86 as the reference entry and 0.88 as a member of this library.

The variant H35T I58N showed nd (0 of 3 replicates).
The variant I58Q A61L Y105V showed nd (0 of 3 replicates).
The variant G26I S57R I58H showed nd (0 of 3 replicates).
The variant S55G I58V D107A showed nd (0 of 3 replicates).
The variant D30G I58R G103D showed nd (0 of 3 replicates).
The variant G26F I58Y showed nd (0 of 3 replicates).
The variant F27T G56I I58V showed nd (0 of 3 replicates).
The variant I58D G59K showed nd (0 of 3 replicates).
The variant G50V W53L I58K showed 5.87 (1 of 3 replicates).
The variant I58F V64R V99K showed 5.41 (2 of 3 replicates).
The variant G26V I58E R101D showed nd (0 of 3 replicates).
The variant F29G M34W I58V showed 0.29 (3 of 3 replicates).
The variant D31Y I58L F106I showed 5.43 (1 of 3 replicates).
The variant I58D Y105Q showed 3.01 (2 of 3 replicates).
The variant F29E D30W I58K showed 4.42 (1 of 3 replicates).
The variant W53K I58G showed 4.45 (2 of 3 replicates).
The variant Y32H I58R Y60P showed nd (0 of 3 replicates).
The variant D30V I58F Y60I showed 4.13 (3 of 3 replicates).
The variant G50L I58A G103E showed 5.64 (1 of 3 replicates).
The variant G50N I58K D107L showed nd (0 of 3 replicates).
The variant S52N I58W D107N showed nd (0 of 3 replicates).
The variant I51L I58H G100T showed nd (0 of 3 replicates).
The variant A33I I58S G103C showed 4.64 (3 of 3 replicates).
The variant T28I I58M V99Q showed nd (0 of 3 replicates).
The variant I58P G59P Y105P showed 5.56 (2 of 3 replicates).
The variant D30A I58S Y108N showed nd (0 of 3 replicates).
The variant I58W K65Q G104S showed 4.65 (2 of 3 replicates).
The variant I58T A61Y S63V showed nd (0 of 3 replicates).
The variant S57H I58A showed 2.79 (1 of 3 replicates).
The variant A33C M34H I58R showed 5.12 (3 of 3 replicates).
The variant F29L I58P Y60C showed 4.23 (1 of 3 replicates).
The variant I58M V99D D107L showed 4.22 (3 of 3 replicates).
The variant M34Q I58D Y105T showed nd (0 of 3 replicates).
The variant S52M S57M I58Y showed nd (0 of 3 replicates).
The variant W53V I58W Y108C showed 1.74 (3 of 3 replicates).
The variant G50E I58A Y60F showed 3.39 (1 of 3 replicates).
The variant M34Y I51A I58D showed 3.80 (2 of 3 replicates).
The variant S57W I58M K65H showed nd (0 of 3 replicates).
The variant I58P A61L F106D showed 4.52 (1 of 3 replicates).
The variant D31E I58R R101L showed nd (0 of 3 replicates).
The variant D30C D31W I58W showed 4.23 (2 of 3 replicates).
The variant G56F I58R Y105L showed 3.15 (3 of 3 replicates).
The variant I51M S57K I58F showed nd (0 of 3 replicates).

The last 7 entries again:

M34Y I51A I58D: 3.80 (2 of 3 replicates).
S57W I58M K65H: nd (0 of 3 replicates).
I58P A61L F106D: 4.52 (1 of 3 replicates).
D31E I58R R101L: nd (0 of 3 replicates).
D30C D31W I58W: 4.23 (2 of 3 replicates).
G56F I58R Y105L: 3.15 (3 of 3 replicates).
I51M S57K I58F: nd (0 of 3 replicates).

From the AlphaSeq antibody data of Engelhart et al. 2022 (doi:10.1038/s41597-022-01779-4), copy in the FLAb collection.